Reference: article PMC9369419 (International Journal of Molecular Sciences, 2022)

Chains of the proteins cited; added tags and fusions are not shown. Residues count along the entry.
UniProt P42264, 32-919 limits assumed: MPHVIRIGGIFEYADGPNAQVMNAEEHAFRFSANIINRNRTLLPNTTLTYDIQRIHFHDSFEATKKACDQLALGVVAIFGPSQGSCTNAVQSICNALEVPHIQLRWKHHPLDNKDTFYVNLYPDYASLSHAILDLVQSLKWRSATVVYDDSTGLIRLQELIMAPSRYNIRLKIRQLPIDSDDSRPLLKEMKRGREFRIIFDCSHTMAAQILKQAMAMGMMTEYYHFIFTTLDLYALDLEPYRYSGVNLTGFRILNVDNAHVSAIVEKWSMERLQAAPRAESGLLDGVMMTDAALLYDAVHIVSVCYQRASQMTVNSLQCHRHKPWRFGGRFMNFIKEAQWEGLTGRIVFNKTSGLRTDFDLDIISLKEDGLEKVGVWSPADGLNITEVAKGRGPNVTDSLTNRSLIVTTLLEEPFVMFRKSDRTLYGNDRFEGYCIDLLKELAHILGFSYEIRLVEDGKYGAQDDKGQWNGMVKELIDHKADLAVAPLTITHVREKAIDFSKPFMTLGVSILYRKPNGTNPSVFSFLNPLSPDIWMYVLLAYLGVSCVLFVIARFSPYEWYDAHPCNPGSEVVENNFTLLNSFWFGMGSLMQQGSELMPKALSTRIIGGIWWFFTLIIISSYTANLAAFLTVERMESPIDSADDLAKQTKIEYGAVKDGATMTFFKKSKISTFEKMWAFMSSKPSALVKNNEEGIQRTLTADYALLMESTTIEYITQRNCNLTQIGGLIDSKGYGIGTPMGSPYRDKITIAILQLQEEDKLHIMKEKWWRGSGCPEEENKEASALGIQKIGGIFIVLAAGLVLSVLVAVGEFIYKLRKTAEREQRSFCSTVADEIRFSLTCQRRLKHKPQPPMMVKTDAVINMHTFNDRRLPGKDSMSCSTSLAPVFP
UniProt Q63273, 15-979 limits assumed: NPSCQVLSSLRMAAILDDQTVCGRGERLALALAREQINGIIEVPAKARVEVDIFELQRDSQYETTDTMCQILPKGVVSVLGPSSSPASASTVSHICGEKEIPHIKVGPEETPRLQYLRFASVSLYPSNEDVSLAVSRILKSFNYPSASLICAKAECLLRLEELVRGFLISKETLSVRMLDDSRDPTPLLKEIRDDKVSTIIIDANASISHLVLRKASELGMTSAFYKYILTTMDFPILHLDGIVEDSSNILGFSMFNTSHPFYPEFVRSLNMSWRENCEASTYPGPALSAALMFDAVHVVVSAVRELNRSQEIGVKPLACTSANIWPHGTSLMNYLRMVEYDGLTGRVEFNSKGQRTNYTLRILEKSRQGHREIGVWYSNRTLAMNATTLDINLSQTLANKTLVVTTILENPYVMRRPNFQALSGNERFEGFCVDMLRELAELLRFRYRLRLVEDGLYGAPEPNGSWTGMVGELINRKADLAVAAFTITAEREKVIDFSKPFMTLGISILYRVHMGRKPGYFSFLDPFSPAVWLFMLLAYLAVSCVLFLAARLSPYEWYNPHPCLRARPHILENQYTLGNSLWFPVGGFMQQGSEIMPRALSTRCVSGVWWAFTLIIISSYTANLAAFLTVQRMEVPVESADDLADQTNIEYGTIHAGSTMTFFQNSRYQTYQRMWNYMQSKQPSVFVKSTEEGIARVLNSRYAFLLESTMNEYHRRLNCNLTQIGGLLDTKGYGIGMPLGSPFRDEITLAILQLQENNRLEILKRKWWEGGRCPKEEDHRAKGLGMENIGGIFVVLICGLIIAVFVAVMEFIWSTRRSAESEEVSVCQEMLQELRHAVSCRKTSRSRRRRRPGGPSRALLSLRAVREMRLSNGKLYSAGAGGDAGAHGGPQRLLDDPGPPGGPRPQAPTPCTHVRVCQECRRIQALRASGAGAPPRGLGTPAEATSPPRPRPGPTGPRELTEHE
UniProt P22756, 31-949 limits assumed: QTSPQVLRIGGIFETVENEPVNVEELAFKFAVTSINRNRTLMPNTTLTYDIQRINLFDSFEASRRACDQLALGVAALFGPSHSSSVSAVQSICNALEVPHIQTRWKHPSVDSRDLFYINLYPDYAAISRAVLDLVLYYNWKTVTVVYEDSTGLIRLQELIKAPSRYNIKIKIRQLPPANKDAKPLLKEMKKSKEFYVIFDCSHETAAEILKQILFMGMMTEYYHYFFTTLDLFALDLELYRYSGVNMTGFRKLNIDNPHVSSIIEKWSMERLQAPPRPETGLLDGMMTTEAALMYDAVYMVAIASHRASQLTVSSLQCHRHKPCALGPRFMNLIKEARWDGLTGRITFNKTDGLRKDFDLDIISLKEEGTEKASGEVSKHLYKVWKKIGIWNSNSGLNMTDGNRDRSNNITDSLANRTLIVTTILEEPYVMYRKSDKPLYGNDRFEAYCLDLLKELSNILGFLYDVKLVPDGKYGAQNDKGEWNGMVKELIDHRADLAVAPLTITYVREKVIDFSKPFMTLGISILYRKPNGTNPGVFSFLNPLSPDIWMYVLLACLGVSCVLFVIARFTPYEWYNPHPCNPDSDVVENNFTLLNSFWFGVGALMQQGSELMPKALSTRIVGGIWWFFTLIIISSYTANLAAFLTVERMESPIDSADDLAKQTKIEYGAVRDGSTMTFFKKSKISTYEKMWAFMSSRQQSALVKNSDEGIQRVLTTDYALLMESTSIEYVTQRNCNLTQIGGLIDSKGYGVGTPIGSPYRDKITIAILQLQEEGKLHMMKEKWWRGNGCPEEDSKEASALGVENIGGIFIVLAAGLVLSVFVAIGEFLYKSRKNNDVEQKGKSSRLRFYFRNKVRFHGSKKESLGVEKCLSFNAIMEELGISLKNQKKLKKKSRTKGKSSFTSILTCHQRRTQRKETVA
UniProt P19491, 22-883 limits assumed: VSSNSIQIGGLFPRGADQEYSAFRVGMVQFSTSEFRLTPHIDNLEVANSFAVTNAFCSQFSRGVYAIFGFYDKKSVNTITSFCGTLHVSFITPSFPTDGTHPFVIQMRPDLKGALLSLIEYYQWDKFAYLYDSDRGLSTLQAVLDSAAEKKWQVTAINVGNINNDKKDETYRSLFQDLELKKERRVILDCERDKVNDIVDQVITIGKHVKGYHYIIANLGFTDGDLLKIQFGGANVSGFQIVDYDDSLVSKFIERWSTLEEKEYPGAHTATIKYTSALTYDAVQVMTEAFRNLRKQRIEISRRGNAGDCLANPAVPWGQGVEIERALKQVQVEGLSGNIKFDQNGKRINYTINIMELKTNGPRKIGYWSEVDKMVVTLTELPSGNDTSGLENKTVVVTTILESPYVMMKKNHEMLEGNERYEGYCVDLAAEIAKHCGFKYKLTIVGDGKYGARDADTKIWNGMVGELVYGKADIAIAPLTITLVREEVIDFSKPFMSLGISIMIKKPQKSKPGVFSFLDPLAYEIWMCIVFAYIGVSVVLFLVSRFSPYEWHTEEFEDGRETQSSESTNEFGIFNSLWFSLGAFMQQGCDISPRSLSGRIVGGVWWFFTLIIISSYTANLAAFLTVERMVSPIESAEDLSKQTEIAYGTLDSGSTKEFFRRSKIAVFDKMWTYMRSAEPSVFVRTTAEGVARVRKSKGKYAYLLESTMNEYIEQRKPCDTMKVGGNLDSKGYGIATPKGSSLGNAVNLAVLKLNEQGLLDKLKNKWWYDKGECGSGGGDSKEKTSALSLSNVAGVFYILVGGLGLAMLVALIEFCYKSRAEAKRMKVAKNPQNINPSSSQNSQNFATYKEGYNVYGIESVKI
UniProt P42260, 32-908 limits assumed: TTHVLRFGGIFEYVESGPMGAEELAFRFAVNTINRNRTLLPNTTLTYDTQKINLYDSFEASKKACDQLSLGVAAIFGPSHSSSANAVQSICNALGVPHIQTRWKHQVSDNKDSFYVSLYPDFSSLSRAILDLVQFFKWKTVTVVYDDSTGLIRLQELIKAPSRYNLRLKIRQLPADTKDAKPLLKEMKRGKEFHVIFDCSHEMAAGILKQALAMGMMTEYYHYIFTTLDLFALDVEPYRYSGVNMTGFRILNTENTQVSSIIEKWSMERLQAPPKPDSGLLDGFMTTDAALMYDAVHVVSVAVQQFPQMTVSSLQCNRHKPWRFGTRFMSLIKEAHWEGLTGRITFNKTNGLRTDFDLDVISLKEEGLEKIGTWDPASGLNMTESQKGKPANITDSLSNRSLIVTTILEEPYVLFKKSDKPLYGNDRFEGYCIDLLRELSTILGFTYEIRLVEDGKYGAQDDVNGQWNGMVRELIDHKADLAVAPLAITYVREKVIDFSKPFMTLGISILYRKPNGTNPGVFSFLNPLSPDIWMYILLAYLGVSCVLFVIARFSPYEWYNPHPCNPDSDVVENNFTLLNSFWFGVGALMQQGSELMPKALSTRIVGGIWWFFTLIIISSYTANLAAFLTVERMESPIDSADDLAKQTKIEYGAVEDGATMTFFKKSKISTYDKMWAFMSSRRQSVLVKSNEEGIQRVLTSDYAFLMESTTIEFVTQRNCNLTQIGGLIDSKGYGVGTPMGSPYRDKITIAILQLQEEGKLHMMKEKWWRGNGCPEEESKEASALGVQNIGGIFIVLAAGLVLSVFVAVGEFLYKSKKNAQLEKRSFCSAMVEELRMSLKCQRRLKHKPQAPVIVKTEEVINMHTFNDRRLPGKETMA

What was measured:
GluK3 = GluK3 (Rattus norvegicus, UniProt P42264); experiment: Radioligand binding at recombinant homomeric GluK3 in Sf9 membranes; settings: read-out: Ki GluK3, recombinant rat homomeric receptor, [3H]-kainic acid, mean ± SEM, tested form: H2O
GluK5 = GluK5 (Rattus norvegicus, UniProt Q63273); experiment: Radioligand binding at recombinant homomeric GluK5 in Sf9 membranes; settings: read-out: Ki GluK5, recombinant rat homomeric receptor, [3H]-kainic acid, mean ± SEM, tested form: H2O
GluK1 = GluK1 (Rattus norvegicus, UniProt P22756); experiment: Radioligand binding at recombinant homomeric GluK1 in Sf9 membranes; settings: read-out: Ki GluK1, recombinant rat homomeric receptor, [3H]-(S)-NF608, mean ± SEM, tested form: H2O
GluA2 = GluA2 (Rattus norvegicus, UniProt P19491); experiment: Radioligand binding at recombinant homomeric GluA2 in Sf9 membranes; settings: read-out: Ki GluA2, recombinant rat homomeric receptor, [3H]-(RS)-AMPA, mean ± SEM, tested form: H2O
GluK2 = GluK2 (Rattus norvegicus, UniProt P42260); experiment: Radioligand binding at recombinant homomeric GluK2 in Sf9 membranes; settings: read-out: Ki GluK2, recombinant rat homomeric receptor, [3H]-kainic acid, mean ± SEM, tested form: H2O

## O=C(Nn1c(=O)c(=O)[nH]c2cc(C#Cc3ccc(O)nc3)ccc21)c1ccccc1
GluK3
  Ki: 11 µM
GluK5
  Ki: > 100 µM
GluK1
  Ki: > 100 µM
GluA2
  Ki: > 100 µM
GluK2
  Ki: > 100 µM
